# Values of other authors as cited in patent publication US20070243268A1, “Compositions for regulating intestinal disorders and methods of use thereof” (priority 2005, published 2007).
# Conditions: fingernail brittleness and hair loss as main criteria
compound,measurement,value
[Se] [selenium],daily intake at which chronic selenium toxicity (selenosis) occurs,about 5 mg
